{
  "source": "paper PMC2740399",
  "about": "(American Journal of Physiology - Cell Physiology, 2009)",
  "target": "T1, HA-tagged hGnRHR (Homo sapiens, UniProt P30968)",
  "T1 sequence (P30968 1-328)": "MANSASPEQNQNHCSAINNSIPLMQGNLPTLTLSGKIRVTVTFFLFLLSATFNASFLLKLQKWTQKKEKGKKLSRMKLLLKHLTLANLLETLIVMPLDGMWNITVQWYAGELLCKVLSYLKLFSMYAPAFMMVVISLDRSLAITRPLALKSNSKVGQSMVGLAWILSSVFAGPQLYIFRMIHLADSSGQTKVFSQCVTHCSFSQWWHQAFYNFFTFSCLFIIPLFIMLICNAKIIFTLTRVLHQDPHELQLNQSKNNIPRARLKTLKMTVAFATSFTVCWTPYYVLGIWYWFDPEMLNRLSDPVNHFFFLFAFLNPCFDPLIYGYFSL",
  "experiment": "Cell surface expression of HA-hGnRHR",
  "type": "cell-based",
  "settings": "HeLa; after 18 h with IN3; not shown",
  "data": [
    {"substance": "cetrorelix", "values": [
      {"measurement": "effect of peptide antagonist on cell surface expression", "value": "failed to reduce hGnRHR expression"}
    ]}
  ]
}
